Experimental data as given in US4016250A, “Method for testing for pregnancy” (Cornell Research Foundation, Inc., priority 1974, dated 1977).

The chains behind the UniProt entries cited, without tags or fusion partners. Residues count along the entry.
UniProt Q28005, 27-701: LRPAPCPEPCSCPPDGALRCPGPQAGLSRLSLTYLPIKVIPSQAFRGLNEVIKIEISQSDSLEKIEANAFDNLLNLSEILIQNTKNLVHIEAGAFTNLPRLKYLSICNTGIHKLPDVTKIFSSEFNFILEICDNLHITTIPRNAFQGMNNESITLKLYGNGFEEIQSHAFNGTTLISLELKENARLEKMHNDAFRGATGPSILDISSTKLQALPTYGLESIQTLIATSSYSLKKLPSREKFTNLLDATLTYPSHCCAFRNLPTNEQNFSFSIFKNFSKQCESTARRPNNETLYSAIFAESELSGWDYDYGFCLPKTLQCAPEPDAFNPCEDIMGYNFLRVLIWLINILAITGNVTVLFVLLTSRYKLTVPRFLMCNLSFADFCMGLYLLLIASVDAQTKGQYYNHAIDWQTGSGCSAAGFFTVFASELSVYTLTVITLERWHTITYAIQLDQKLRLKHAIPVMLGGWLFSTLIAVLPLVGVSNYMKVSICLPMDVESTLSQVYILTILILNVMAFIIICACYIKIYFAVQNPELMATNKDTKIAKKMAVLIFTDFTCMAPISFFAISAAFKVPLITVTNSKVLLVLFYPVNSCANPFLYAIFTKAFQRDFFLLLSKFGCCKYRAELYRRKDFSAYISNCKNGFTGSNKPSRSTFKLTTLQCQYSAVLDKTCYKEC

Legend:
[1] = target: T1, receptor for HCG in plasma membranes from bovine corpora lutea (Bos taurus, UniProt Q28005); test: Radioreceptorassay of HCG: competition with 125I-HCG for plasma membrane receptor; type: binding; settings: for cross-reaction in the radioreceptorassay of HCG (FIG. 2): FIG. 2 legends: TSH, HGH, PRL are plasma from hypothyroid, acromegalic, postpartum lactation subjects
T1 construct: 100 g. of tissue from approximately 25 large corpora lutea; from tissue; host or cells: bovine corpora lutea of early pregnancy (slaughterhouse), plasma membrane fraction from zonal sucrose gradient
Procedure: All procedures in the preparation of plasma membranes were carried out in an ice bath or at 4° C. Fresh bovine ovaries from early pregnancy (first trimester: fetus length from crown to rump up to 22 cm.) were obtained from the slaughter house and stored in liquid nitrogen until processed. In a typical experiment, 100 g. of tissue from approximately 25 large corpora lutea were cut into small pieces with a sharp steel blade and ground in 500 ml. of 10 mM. Tris-HCl buffer of pH. 7.8 containing one mM. of MgCl2, one MM. dithiothreitol, 10,000I.U. of Trasylol (FBA Pharmaceuticals) per liter and 0.25 M. sucrose. The homogenate was filtered through two layers of cheese cloth and the larger particles were reprocessed in 500 ml. of the buffer. […] The homogenate was centifuged at 650 xg. for 20 minutes in a Sorvall refrigerated centrifuge (RC B, Rotor GSA) to remove intact cells, cell debris and nuclei. The 650 × g. supernatant was again centrifuged at 13,000 g. for 20 minutes in the same centrifuge. Supernatant was this time discarded and the pellet was resuspended in 50 to 70 ml. of the Tris-HCl buffer with the aid of the Teflon-glass homogenizer. This suspension was injected in the core of a TI-14 zonal rotor (Model Beckman Spinco L3-50) spinning at 3,000 rpm. and containing 500 ml. of a linear sucrose gradient (LKB Ultrograd 11300 pump) from 30% (w/v) to 50% (w/v) sucrose and 120 ml. of cushion of 50% (w/v) sucrose (pumping rate 20 ml./min.) An overlay of 20 ml. was injected after the sample. After two hours of centrifugation at 45,000 rpm., the centrifuge was decelerated and the rotor content displaced with 55% sucrose at 20 ml./min. The plasma membranes were displaced from the rotor in the order of increasing particle size, and fractions of 12 ml. were collected and immediately frozen until assayed for binding and enzynatic activity. Membranes were kept frozen during three months without apparent loss of binding ability. Aliquot of the fractions were taken for electron microscopy before freezing.
A fraction showing the highest binding with the labeled HCG, a low enzyme activity and containing pure plasma membranes as shown by electron microscopy was eluted at a sucrose density of 1.16 (ca 35% w/v). Suitable aliquots of this fraction were stored in liquid nitrogen and used as the receptor.
In Table I, the incubation was performed for 30 minutes at 37° C. in a Dunaboff water bath shaker. One ml. of chilled diluent was then added to each tube. […] The supernates were aspirated and the pellets were counted in a Packard Autogamma counter with a 51% efficiency for I^125. The standard curves and the hormonal concentration in the plasma samples were calculated by a time sharing IBM computer using logit-log transformations.

[2] = target: T2, PRL receptor sites in ovarian homogenates (Bos taurus, UniProt Q28172); test: Specificity of 125I-hPRL binding: displacement by unlabeled hormones; set-up: species or system bovine; settings: various concentrations
T2 construct: from tissue; host or cells: ovarian homogenate (bovine, from the preparation section)
T2 sequence (Q28172 25-581): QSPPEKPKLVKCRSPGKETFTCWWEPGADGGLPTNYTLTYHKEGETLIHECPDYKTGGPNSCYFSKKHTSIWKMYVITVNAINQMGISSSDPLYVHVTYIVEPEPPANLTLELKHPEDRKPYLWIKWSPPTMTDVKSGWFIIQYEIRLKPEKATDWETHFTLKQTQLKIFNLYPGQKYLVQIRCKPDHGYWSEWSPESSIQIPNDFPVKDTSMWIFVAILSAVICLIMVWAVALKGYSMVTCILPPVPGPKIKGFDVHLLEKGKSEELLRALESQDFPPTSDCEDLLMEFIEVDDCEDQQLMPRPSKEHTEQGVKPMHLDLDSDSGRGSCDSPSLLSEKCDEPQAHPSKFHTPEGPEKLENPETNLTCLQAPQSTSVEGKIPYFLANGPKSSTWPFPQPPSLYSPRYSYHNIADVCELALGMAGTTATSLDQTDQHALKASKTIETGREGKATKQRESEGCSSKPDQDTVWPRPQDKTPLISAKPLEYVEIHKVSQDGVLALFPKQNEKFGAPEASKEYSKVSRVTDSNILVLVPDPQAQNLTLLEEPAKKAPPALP
Procedure: A reaction mixture containing 100 ul of incubation buffer containing 10 IU Trasylol (FBA Pharmaceuticals, New York, New York), 50 ul of receptor preparation equivalent to 1-300 ug of protein and 100 ul of ^125 I-hPRL (SA; 50-70 uCi/ug) were incubated at 37° C. for 2 hours in the absence and in the presence of 1 ug of unlabeled bovine PRL. At the end of incubation, 1 ml of ice cold buffer was added to all tubes and tubes were centrifuged at 5,000 rpm for 20 minutes. The supernatants were aspirated. The pellets containing receptor bound hormones were counted in an Automamma counter with a 51% efficiency for ^125 I (Packard Instrument Company, Downers Grove, Illinois). Specific binding was calculated as the difference of binding in the tubes with and without unlabeled PRL.

[3] = system: ovarian ascorbic acid depletion; test: Ovarian ascorbic acid depletion assay of labeled HCG; type: in vivo; settings: I125-labeled HCG used in the test; 95% confidence limits 5,826-12,250 I.U./mg
Procedure: Highly purified HCG (containing 12,000 I.U./mg. was utilized for the testing. The HCG was labeled with I^125 by using lactoperoxidase prepared from milk (RZ = 0.78; Sigma Company, St. Louis, Missouri). Two mCi of I^125 in 20 ul. of 0.1 M. sodium acetate buffer of pH. 60 were mixed with 25 ug. of HCG in a reaction vial. An aliquot of 50 ng. lactoperoxidase in 20 ul. and 200 ng. of H2 O2 in 10 ul. of water are then added to the vial. Three aliquots of 100 ng. of H2 O2 were added at five minute intervals. The end of 20 minutes, the reaction was stopped by the addition of 0.5 ml. of 0.15 M. NaCl containing 1% of bovine serum albumin (BSA) of pH. 7.0. The labeled hormone was then separated from free iodine by gel filtration on a 1x30 cm. column of Sephadex G-100 equilibriated with 0.15 m. NaCl containing 1% of BSA, pH. 7.0. The specific activity of the labeled HCG was determined by precipitation with trichloroacetic acid. Five ul. of the crude reaction mixture was diluted to 5 ml. with 0.05 M. phosphate buffer of pH. […] The radioactivity associated with the precipitable material was considered as protein bound and was used in the calculation of the specific activity of the labeled hormone. […] The biological activity of the labeled HCG used in the test, as determined by ovarian ascorbic acid depletion assay, was 8,923 I.U./mg. with 95% confidence limits of 5,826-12,250 I.U./mg.

cross-reaction in the radioreceptorassay of HCG (FIG. 2) [1] | cross-reaction in the radioreceptorassay of HCG ([1]; highly purified preparations, 30 minutes at 37° C) | displacement of 125I-hPRL bound to receptor protein [2] | Substance | biological activity of the labeled HCG [3] | discrimination from HCG in the radioreceptorassay [1]
no cross-reaction | complete lack of cross-reaction | No displacement | follicle stimulating hormone [FSH] |  | 
 |  |  | labeled HCG: Highly purified human chorionic gonadotropin labeled with I125 using lactoperoxidase | 8,923 I.U./mg | 
 |  | No displacement | luteinizing hormone [LH] |  | did not discriminate between HCG and LH; also recorded: did not discriminate between LH and HCG
no cross-reaction |  |  | thyroid stimulating hormone [TSH] |  | 

“Also recorded” adds a separate entry of the source.
